Test results reported in PubChem BioAssay AID588692 (Broad Institute, 2011).
Only a part is listed here, and it is no random draw. Some structures show a salt or complex split into parts, the way the source records it. Active and inactive are the calls of the source.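 The calls were made as follows: active = mean luciferase reporter signal, scaled so untreated is 0 and the glycosylation-blocking control 100, at or above a set limit in every replicate; inconclusive = mean reaches the limit but not every replicate does; inactive = mean below the limit.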

Assay: increase of ERlucT glycosylation luciferase signal, primary screen, N-linked glycosylation inhibitor project, D54 ERlucT cells, luminescence, set 2 (AID 588692);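 also: luciferase carries N-glycosylation sites so blocking glycosylation raises the light; 0% = median of neutral control wells and 100% = median of 100 nM tunicamycin wells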
Details: 24 h, at 12.5 µM, active compounds read high, percent of 100 nM tunicamycin response

SMILES	reporter increase
COc1ccccc1OP(C)(=O)Nc1ccc(C)c(C)c1 (centres undefined)	inactive: -0.627%
COc1ccc(OP(C)(=O)Nc2ccccc2Br)cc1 (centres undefined)	inactive: 0.867%
O=C1C(O)=C([N+](=O)[O-])C(=O)C(O)=C1[N+](=O)[O-]	inactive: -0.766%
Cc1cc(C)cc(OP(C)(=O)Nc2cccc(C(F)(F)F)c2)c1 (centres undefined)	inactive: 1.65%
CP(=O)(OCCOc1ccccc1)OCCOc1ccccc1	inactive: 1.66%
CCCCCCCCCCCCCCCC1C[N+](C)(C)CCOP(C)(=O)O1 (centres undefined)	inactive: -18.5%
CP(=O)(Nc1ccc(Cl)cc1Cl)Oc1ccccc1 (centres undefined)	inactive: 0.122%
COc1ccc(OP(C)(=O)Nc2ccccn2)cc1 (centres undefined)	inactive: 1.06%
CN(C)CCOC(=O)C(O)(c1ccccc1)C1CCCC1 (centres undefined)	inactive: -3.58%
COc1ccccc1OP(C)(=O)Nc1ccc(Br)cc1 (centres undefined)	inactive: 0.362%
CP(=O)(Nc1ccccn1)Oc1ccccc1 (centres undefined)	inactive: -1.4%
COc1ccccc1OP(C)(=O)Nc1ccc(C)cc1C (centres undefined)	inactive: 1.91%
CCc1ccc(OP(C)(=O)O)cc1	inactive: 3.18%
O=[N+]([O-])c1cc([N+](=O)[O-])c(Nc2ccccn2)c([N+](=O)[O-])c1	inactive: 1.83%
Cc1c(NP(C)(=O)Oc2ccc(C(C)C)cc2)c(=O)n(-c2ccccc2)n1C (centres undefined)	inactive: -1.01%
COc1ccccc1OP(C)(=O)Nc1c(C)n(C)n(-c2ccccc2)c1=O (centres undefined)	inactive: 2.16%
O=C(OCCCN1CCCC1)C(O)(c1ccccc1)C1CCCCC1 (centres undefined)	inactive: -0.967%
CP(=O)(Oc1ccccc1)N1CCOC1=O (centres undefined)	inactive: -0.0745%
CCc1ccc(OP(C)(=O)Nc2cccnc2)cc1 (centres undefined)	inactive: 1.36%
CCN(CC)CC(O)COC(=O)C(O)(c1ccccc1)C1CCCCC1 (centres undefined)	inactive: -0.348%
COc1ccc(OP(C)(=O)Nc2ccc(Br)cc2)cc1 (centres undefined)	inactive: 0.334%
CN(C)C(=O)c1c([N+](=O)[O-])cc([N+](=O)[O-])cc1[N+](=O)[O-]	inactive: 3.17%
CC(C)(C)c1ccc(OP(C)(=O)O)cc1	inactive: 0.619%
COc1ccccc1OP(C)(=O)Nc1ccccc1Br (centres undefined)	inactive: 2.17%

SMILES	reporter increase
CP(=O)(Nc1ccc(Cl)cc1)Oc1ccc(F)cc1 (centres undefined)	inactive: 0.792%
CCOC(=O)c1ccc(NP(C)(=O)Oc2ccc(Cl)cc2)cc1 (centres undefined)	inactive: 7.72%
CP(=O)(OC12CC3CC(CC(C3)C1)C2)OC12CC3CC(CC(C3)C1)C2	inactive: -0.965%
CN(C)CCOC(=O)C(O)(c1ccccc1)C1CCCCC1 (centres undefined)	inactive: -1.75%
COc1ccc(NP(C)(=O)Oc2ccccc2OC)cc1 (centres undefined)	inactive: 3.5%
COc1ccc(OP(C)(=O)Nc2cccc(Br)c2)cc1 (centres undefined)	inactive: 0.446%
Cc1c(C(c2ccc3c(c2)OCO3)c2c(C)n(C)n(-c3ccccc3)c2=O)c(=O)n(-c2ccccc2)n1C.O=[N+]([O-])c1cc([N+](=O)[O-])c(O)c([N+](=O)[O-])c1	inactive: 0.255%
O=[N+]([O-])c1ccc(OP2(=O)COCCO2)cc1 (centres undefined)	inactive: 1.6%
Cc1cc(-c2cccc3ccccc23)c(C)cn1.O=[N+]([O-])c1cc([N+](=O)[O-])c(O)c([N+](=O)[O-])c1	inactive: 6.71%
O=[N+]([O-])c1cc([N+](=O)[O-])c(NCC2CCS(=O)(=O)C2)c([N+](=O)[O-])c1 (centres undefined)	inactive: -0.95%
CCOP(C)(=S)SCC(=O)NC(C)(CC)C(=O)O (centres undefined)	inactive: 3.02%
CP(=O)(Nc1ccc(SC(F)(F)F)cc1)Oc1ccc(F)cc1 (centres undefined)	inactive: -2.56%
Cc1ccccc1NP(C)(=O)Nc1ccccc1C	inactive: 0.65%
CP(=O)(Nc1ccc2c(c1)OCCO2)Oc1ccccc1 (centres undefined)	inactive: -0.386%
CP(=O)(Nc1ccccc1F)Oc1ccccc1 (centres undefined)	inactive: 1.52%
CC(C)c1ccc(OP(C)(=O)Nc2ccc(SC(F)(F)F)cc2)cc1 (centres undefined)	inactive: 3.4%
O=[N+]([O-])c1cc([N+](=O)[O-])c(Nc2ccc(Cl)cc2)c([N+](=O)[O-])c1	inactive: 0.965%
COc1ccc2c(c1O)-c1c(O)c(OC)cc3c1[C@H](C2)[N+](C)(C)CC3.O=[N+]([O-])c1cc([N+](=O)[O-])c([O-])c([N+](=O)[O-])c1[O-]	inactive: 5.03%
O=C(OC1CN2CCC1CC2)c1ccc([N+](=O)[O-])cc1 (centres undefined)	inactive: -2.78%
O=C(OCCN1CCN(CCOCc2ccccc2)CC1)C(O)(c1ccccc1)c1ccccc1	inactive: -2.86%
CCOC(=O)c1ccc(NP(C)(=O)Oc2ccc(F)cc2)cc1 (centres undefined)	inactive: 2.98%
COc1ccc(OP(C)(=O)Nc2ccc(SC(F)(F)F)cc2)cc1 (centres undefined)	inactive: -0.979%
CP(=O)(Nc1ccccc1)Oc1ccc(F)cc1 (centres undefined)	inactive: 1.17%
CCCCCOc1ccc(NP(C)(=O)Oc2ccc(Cl)cc2Cl)cc1 (centres undefined)	inactive: -1.58%

SMILES	reporter increase
O=[N+]([O-])c1cc([N+](=O)[O-])c(OC2CCCCC2O)c([N+](=O)[O-])c1 (centres undefined)	inactive: 4.75%
Cc1c([N+](=O)[O-])cc([N+](=O)[O-])c(Br)c1[N+](=O)[O-]	inactive: 0.624%
O=C(O)c1cccc(Nc2c([N+](=O)[O-])cc([N+](=O)[O-])cc2[N+](=O)[O-])c1	inactive: 1.46%
CC1=NCCc2c1[nH]c1ccccc21.O=[N+]([O-])c1cc([N+](=O)[O-])c(O)c([N+](=O)[O-])c1	inactive: -2.66%
CCOC(=O)c1ccc(NP(C)(=O)Oc2cc(C)cc(C)c2)cc1 (centres undefined)	inactive: -0.585%
Cc1cc(C)cc(OP(C)(=O)Nc2ccc(C)cc2C)c1 (centres undefined)	inactive: 0.65%
COc1ccccc1OP(C)(=O)Nc1cccc(Br)c1 (centres undefined)	inactive: 1.23%
Cc1ccc(C)c(NP(C)(=O)Oc2ccccc2)c1 (centres undefined)	inactive: 0.017%
CP(=O)(Nc1cccc(Br)c1)Oc1ccccc1 (centres undefined)	inactive: -0.919%
Cc1cc(C)cc(OP(C)(=O)Nc2ccccn2)c1 (centres undefined)	inactive: -0.101%
CN(Cc1cccnc1)C(=O)COc1ccc(Cl)c(Cl)c1.O=[N+]([O-])c1cc([N+](=O)[O-])c(O)c([N+](=O)[O-])c1	inactive: -1.18%
O=[N+]([O-])c1cc([N+](=O)[O-])c(-n2nnc3ccccc32)c([N+](=O)[O-])c1	inactive: 1.64%
Cc1nc2ccc3ccccc3c2s1.O=[N+]([O-])c1cc([N+](=O)[O-])c(O)c([N+](=O)[O-])c1	inactive: 1.98%
O=[N+]([O-])c1cc([N+](=O)[O-])c(-c2cnn(-c3ccccc3)c2)c([N+](=O)[O-])c1	inactive: -0.269%
O=[N+]([O-])c1cc([N+](=O)[O-])c(Nc2nnnn2CCO)c([N+](=O)[O-])c1	inactive: 4.1%
CC1=C2N=C(C=C3N=C(C(C)=C4[N-][C@@](C)([C@@H]5N=C1[C@](C)(CCC(=O)NC[C@@H](C)OP(=O)([O-])O[C@H]1[C@@H](O)[C@@H](n6cnc7cc(C)c(C)cc76)O[C@@H]1CO)[C@H]5CC(N)=O)[C@@](C)(CC(N)=O)[C@@H]4CCC(N)=O)[C@@](C)(CC(N)=O)[C@@H]3CCC(N)=O)C(C)(C)[C@@H]2CCC(N)=O.[C-]#N.[Co+3]	inactive: -8.32%
CCOC(=O)C(CC)C1=NC(C)(C)Cc2ccccc21.O=[N+]([O-])c1cc([N+](=O)[O-])c(O)c([N+](=O)[O-])c1 (centres undefined)	inactive: 1.5%
CP(=O)(Nc1ccc(SC(F)(F)F)cc1)Oc1ccccc1 (centres undefined)	inactive: -1.38%
CCCOc1ccc(NP(C)(=O)Oc2ccc(Cl)cc2)cc1 (centres undefined)	inactive: 1.7%
CN1CCCCC1COC(=O)C1(O)c2ccccc2CCc2ccccc21 (centres undefined)	inactive: 5.17%
COc1ccccc1OP(C)(=O)Nc1c(C)cccc1C (centres undefined)	inactive: 0.431%
CP(=O)(Nc1ccccc1Br)Oc1ccccc1 (centres undefined)	inactive: 2.14%
COc1ccccc1OP(C)(=O)Nc1ccccc1 (centres undefined)	inactive: 1.74%
CP(=S)(Nn1cnnc1)Oc1ccccc1 (centres undefined)	inactive: 2.85%

SMILES	reporter increase
CCc1ccc(OP(C)(=O)N2CCN(c3ccc([N+](=O)[O-])cc3)CC2)cc1 (centres undefined)	inactive: 3.08%
CP(=O)(NC(=O)Nc1ccccc1)Oc1ccccc1 (centres undefined)	inactive: 0.584%
Cc1cc(C)cc(OP(C)(=O)Nc2ccc(SC(F)(F)F)cc2)c1 (centres undefined)	inactive: -1.11%
CP(=O)(Nc1ccc(SC(F)(F)F)cc1)Oc1ccc(Cl)cc1 (centres undefined)	inactive: 0.291%
Cc1ccc(Nc2c([N+](=O)[O-])cc([N+](=O)[O-])cc2[N+](=O)[O-])cc1	inactive: 0.675%
Cc1cccc(C)c1OP(C)(=O)Nc1ccc(SC(F)(F)F)cc1 (centres undefined)	inactive: 1.69%
CP(=O)(Oc1ccccc1)OC(c1ccccc1)C(F)(F)F (centres undefined)	inactive: 1.74%
CP(=O)(Nc1ccccn1)Oc1ccc(Cl)cc1 (centres undefined)	inactive: 2.19%
O=[N+]([O-])c1cc([N+](=O)[O-])c(O)c([N+](=O)[O-])c1.c1ccc(Oc2ccncc2)cc1	inactive: -0.605%
CCOC(=O)c1ccc(NP(C)(=O)Oc2ccc(OC)cc2)cc1 (centres undefined)	inactive: -1.19%
CCOP(C)(=S)SCC(=O)NC(C)C(=O)O (centres undefined)	inactive: 1.24%
CCN(CC)CCCOC(=O)C(O)(c1ccccc1)c1ccccc1	inactive: -2.27%
O=[N+]([O-])c1ccc2c(c1)C=Nc1ccccc1O2	inactive: 2.71%
CC(C)(C)c1ccc(OP(C)(=O)Nc2ccc(SC(F)(F)F)cc2)cc1 (centres undefined)	inactive: -1.38%
Cc1cccc(C)c1OP(C)(N)=O (centres undefined)	inactive: 4.15%
O=[N+]([O-])c1cc([N+](=O)[O-])c(Nc2cccnc2)c([N+](=O)[O-])c1	inactive: 4.37%
Cc1cc(C)cc(OP(C)(N)=O)c1 (centres undefined)	inactive: 2.19%
COc1ccccc1OP(C)(=O)Nc1cc(Cl)ccc1C (centres undefined)	inactive: 0.865%
COc1ccc(OP(C)(=O)Nc2cccc(F)c2)cc1 (centres undefined)	inactive: 2.69%
COc1ccccc1OP(C)(=O)Nc1ccc(C)cc1 (centres undefined)	inactive: 2.58%
Cc1ccc(NP(C)(=O)Oc2ccccc2)c(C)c1 (centres undefined)	inactive: 2.3%
CCOC(=O)c1ccc(NP(C)(=O)Oc2ccccc2)cc1 (centres undefined)	inactive: -0.688%
